Results as given in patent US7947270B2, “Removing dental plaque with krill enzymes” (Arcimboldo AB, priority 1992, dated 2011).

Molecular target: krill-derived multifunctional hydrolase (antarctic krill)
Experiment: cell-based or functional assay

“Bovine pancreatic trypsin inhibitor (from UniProt P00974 36-93)” showed a % activity remaining of Prep-3 with 1 µM inhibitor, pH 9.5 (% activity remaining) of 2, a % activity remaining of Prep-8 with 1 µM inhibitor, pH 9.5 (% activity remaining) of 1 and a % activity remaining of Prep-11 with 1 µM inhibitor, pH 9.5 (% activity remaining) of 1.
